Biological target: T1, human leukocyte elastase (HLE) (Homo sapiens, UniProt P08246)
T1 construct: purchased Calbiochem
T1 sequence (P08246 30-247 limits assumed): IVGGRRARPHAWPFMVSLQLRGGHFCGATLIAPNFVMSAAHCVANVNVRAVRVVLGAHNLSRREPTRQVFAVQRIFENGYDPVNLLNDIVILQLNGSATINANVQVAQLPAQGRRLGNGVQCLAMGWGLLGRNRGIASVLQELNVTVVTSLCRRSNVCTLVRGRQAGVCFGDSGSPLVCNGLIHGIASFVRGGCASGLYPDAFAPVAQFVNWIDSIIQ
Assay: Kinetic parameters of HLE inhibition (fluorogenic substrate, steady-state KI^ss and K5/KI)
Assay type: biochemical
Details: HLE (Calbiochem), 37° C., pH 7.4 phosphate buffer, 1% DMSO, 1% MeCN; read-out: K5 /KI (rate of formation of the HLE-inhibitor complex)

kinact/KI: 26000 M⁻¹ s⁻¹
SMILES: CO[C@H]1C(=O)N2C(C(=O)C(C)(C)C)=C(CSc3nnnn3C)C(Sc3nnnn3C)S(=O)(=O)C12 (stereo partly shown) [Ref. 2, reference compound]

Reference: patent publication US5580865A, “2,2-disubstituted cephem sulphones” (Farmitalia Carlo Erba S.r.l., priority 1992, dated 1996)
